Biological target: T1, CD36 (Rattus norvegicus, UniProt Q07969)
T1 construct: from tissue; host or cells: Heart (cardiac membranes) of Sprague Dawley rats from Charles River
Experiment: Competition binding of photoactivatable [125I]-Tyr-Bpa-Ala-Hexarelin to CD36 in rat cardiac membranes
Settings: competition with [125I]-Tyr-Bpa-Ala-Hexarelin, rat heart membranes; read-out: IC50 (μM), binding affinity for CD36
Procedure: Hearts from Sprague Dawley rats (300-325 g) from Charles River were cut into small pieces and homogenized with a Polytron® at low speed, 3×15 sec in buffer A (10 mM NaHCO3, 5 mM NaN3, 10 μM Pefabloc®, 0.1 μM Aprotinin, 1 μM Pepstatin A, 1 μM Leupeptin, pH 7.0) at a concentration of […] of tissue. The homogenate was first centrifuged at 8,700×g for 20 min in a Sorvall® centrifuge and the supernatant was collected on ice. The pellet was resuspended and re-homogenized with a Glass-Teflon® Potter by 5 strokes. This homogenate was recentrifuged at 8,700×g for 10 min and the resulting supernatant was combined with the first collected supernatant. The combined supernatant was centrifuged at 35,000×g for 20 min. The pellet fraction obtained was resuspended in Buffer B (20 mM Tris-maleate, 0.6M KCl, pH 6.8) in a volume corresponding to 20 mL/g of fresh tissue using a glass homogenizer with a Teflon pestle. The resulting suspension was centrifuged again at 35,000×g for 60 min. and the pellet fraction obtained was resuspended in Buffer C (10 mM Tris/HCl buffer pH 7.4) and thoroughly homogenized in a glass with a Teflon® pestle (20 ml/g of fresh tissue). This suspension was submitted to another centrifugation at 35,000×g for 60 min. […] Protein concentration was determined using the bicinchoninic acid (BCA) method, employing BSA as standard. […]

Sequences of proteins named here, by UniProt entry; tags and fusion partners are left off. A change or cut given only in a name is not applied to a line headed by its entry.
UniProt Q07969: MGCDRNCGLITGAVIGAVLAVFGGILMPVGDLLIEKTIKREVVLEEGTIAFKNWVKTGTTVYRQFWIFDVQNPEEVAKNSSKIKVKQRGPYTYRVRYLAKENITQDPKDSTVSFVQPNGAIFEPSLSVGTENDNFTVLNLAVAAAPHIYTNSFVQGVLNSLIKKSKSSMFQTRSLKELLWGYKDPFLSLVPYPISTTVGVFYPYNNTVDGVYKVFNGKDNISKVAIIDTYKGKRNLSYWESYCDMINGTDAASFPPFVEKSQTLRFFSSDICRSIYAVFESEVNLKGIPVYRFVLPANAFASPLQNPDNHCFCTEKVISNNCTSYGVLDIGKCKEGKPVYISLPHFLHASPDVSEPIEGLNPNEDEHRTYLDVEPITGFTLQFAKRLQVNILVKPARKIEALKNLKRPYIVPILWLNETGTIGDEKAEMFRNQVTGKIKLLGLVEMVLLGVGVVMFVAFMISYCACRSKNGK

IC50: 0.5 µM
SMILES: Cc1[nH]c2ccccc2c1C[C@@H](NC(=O)[C@@H](N)Cc1cnc[nH]1)C(=O)N[C@@H](C)C(=O)N[C@@H](Cc1c[nH]c2ccccc12)C(=O)N[C@H](Cc1ccccc1)C(=O)N[C@@H](CCCCN)C(N)=O [Hexarelin, reference compound]

Reference: US11879021B2, “Cyclic peptides and uses thereof” (UNIVERSITÉ DE MONTRÉAL, priority 2016, dated 2024)
